Data on eleven compounds can be found in patent US20250354195A1, “METHOD OF SCREENING” (UNIVERSITY OF DUNDEE, priority 2024, published 2025).

The chains behind the UniProt entries cited, without tags or fusion partners.
UniProt P49841, whole entry: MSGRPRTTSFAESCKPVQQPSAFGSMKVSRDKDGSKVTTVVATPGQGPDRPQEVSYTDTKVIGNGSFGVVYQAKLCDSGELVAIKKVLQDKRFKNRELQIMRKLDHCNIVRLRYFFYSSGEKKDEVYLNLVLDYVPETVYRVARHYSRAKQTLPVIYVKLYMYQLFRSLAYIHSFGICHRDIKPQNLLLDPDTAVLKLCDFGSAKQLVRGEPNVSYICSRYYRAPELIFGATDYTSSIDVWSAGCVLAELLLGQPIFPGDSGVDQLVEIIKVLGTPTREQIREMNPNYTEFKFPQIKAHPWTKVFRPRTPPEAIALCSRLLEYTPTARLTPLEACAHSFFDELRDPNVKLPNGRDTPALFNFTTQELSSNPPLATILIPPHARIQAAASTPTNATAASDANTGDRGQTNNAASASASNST
UniProt Q96SW2, whole entry: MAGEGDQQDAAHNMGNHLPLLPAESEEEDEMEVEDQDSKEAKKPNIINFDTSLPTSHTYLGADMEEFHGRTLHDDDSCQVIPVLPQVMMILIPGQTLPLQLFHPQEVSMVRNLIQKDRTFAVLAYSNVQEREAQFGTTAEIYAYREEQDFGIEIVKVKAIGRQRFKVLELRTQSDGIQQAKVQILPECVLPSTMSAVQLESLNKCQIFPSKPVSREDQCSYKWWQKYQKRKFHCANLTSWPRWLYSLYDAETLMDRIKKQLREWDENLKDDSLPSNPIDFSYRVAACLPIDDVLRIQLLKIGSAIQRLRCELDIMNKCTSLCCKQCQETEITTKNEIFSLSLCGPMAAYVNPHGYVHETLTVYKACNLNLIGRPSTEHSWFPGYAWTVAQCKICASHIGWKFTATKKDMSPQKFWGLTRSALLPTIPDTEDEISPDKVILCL
UniProt Q16531, whole entry partner: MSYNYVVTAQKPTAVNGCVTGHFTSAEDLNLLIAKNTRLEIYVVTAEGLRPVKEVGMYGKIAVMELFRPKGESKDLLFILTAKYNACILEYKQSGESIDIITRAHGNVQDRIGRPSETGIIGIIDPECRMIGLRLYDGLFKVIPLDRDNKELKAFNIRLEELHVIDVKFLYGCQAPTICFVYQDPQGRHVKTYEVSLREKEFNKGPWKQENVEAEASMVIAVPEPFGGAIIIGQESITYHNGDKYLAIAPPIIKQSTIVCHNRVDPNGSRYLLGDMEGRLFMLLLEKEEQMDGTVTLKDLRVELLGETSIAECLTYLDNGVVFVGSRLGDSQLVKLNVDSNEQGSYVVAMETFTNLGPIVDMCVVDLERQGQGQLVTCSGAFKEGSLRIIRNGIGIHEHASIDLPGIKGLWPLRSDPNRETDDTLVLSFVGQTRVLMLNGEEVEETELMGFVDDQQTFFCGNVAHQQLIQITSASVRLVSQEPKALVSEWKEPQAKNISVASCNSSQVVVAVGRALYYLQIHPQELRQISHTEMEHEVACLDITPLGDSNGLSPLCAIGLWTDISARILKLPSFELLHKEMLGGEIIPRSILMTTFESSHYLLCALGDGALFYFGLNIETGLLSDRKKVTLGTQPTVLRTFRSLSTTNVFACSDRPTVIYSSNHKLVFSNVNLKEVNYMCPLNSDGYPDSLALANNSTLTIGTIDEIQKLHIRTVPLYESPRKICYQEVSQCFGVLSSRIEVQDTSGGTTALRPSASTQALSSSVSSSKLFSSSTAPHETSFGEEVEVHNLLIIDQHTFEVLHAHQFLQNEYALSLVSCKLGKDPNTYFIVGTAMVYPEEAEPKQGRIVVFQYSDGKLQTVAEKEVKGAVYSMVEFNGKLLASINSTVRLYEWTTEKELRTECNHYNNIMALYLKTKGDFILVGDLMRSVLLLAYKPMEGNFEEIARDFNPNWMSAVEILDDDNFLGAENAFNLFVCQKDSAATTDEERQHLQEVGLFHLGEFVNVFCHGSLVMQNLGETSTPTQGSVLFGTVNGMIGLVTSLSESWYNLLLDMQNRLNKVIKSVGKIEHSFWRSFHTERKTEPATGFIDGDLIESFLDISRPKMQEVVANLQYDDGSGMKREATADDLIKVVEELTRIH

This assay addresses GSK3β (Homo sapiens, UniProt P49841+Q96SW2). As to the kind of experiment: High throughput screening for GSK3β-HiBiT targeted degradation (Nano-Glo HiBiT Lytic luminescence). To be noted: HEK293 cells with endogenously HiBiT-tagged GSK3β, 24 h incubation, products of one-pot plate array (FIG. 1, Method A); for DC50: read-out: DC50 (half-maximal degradation concentration), 0.01-30 μM. On the procedure:
High throughput Screening for GSK3 β-HiBiTL: Test compounds were transferred into Echo plate (Beckman, 001-12782, Echo LDV384) using BRAVO automated liquid handling platform which serves as source plate (10 mM stocks in DMSO). Serial dilutions of the compounds were done using Echo550 liquid handler as 30 μM, 10 μM, 3 μM, 1 μM, 0.3 μM, 0.1 μM, 0.03 μM and 0.01 μM in final concentrations in assay plates. One column of each assay plate was reserved for DMSO control treatments. After compounds were serially diluted in assay plates, HEK293 cells (CRL-1573, ATCC) genetically engineered using CRISPR/Cas9 technology to endogenously tag GSK3p protein with HiBiT tag at the C-terminus (Schwinn et al., 2018, CRISPR-mediated tagging of endogenous proteins with a luminescent peptide, ACS Chem. Biol., 13(2), 467-74) were seeded at a density of 5000 cells/well in 50 μL complete media in 384-well TC-grade white plates (Perkin Elmer, Culturplate, 6007619) with the help of Multidrop Combi liquid dispenser and cells were incubated for 24 h with compounds at 37° C. in humidified incubators with 5% CO2. At the end of the treatment, equal volume of Nano-Glo HiBiT Lytic reagent (Promega N3030) supplied with Nano-Glo HiBiT Lytic substrate and LgBiT Protein were added into each well according to manufacturer's instructions, and cells were incubated on an orbital shaker for 15 seconds and for a further 15 minutes at room temperature. Luminescence signals were measured in an appropriate plate reader (PHERAstar FSX, BMG Labtech) (Dixon et al., 2016, NanoLuc complementation reporter optimized for accurate measurement of protein interactions in cells, ACS Chem. Biol., 11, 400-8). Changes in protein abundance upon compound treatment were further analysed by normalising raw luminescence values to DMSO values and fold changes were plotted using for parameter logistic regression with GraphPad Prism (10.1.2).
Furthermore, the present investigators have shown that bifunctional compounds manufactured using the method of the present disclosure may be effective in the uses of bifunctional compounds, for example as PROTACs in targeted protein degradation (TPD). […] GSK3p was targeted for degradation using a binder for GSK3p, and a binder for CRBN; the binders were comprised in molecules comprising moieties for reacting with the orthogonally reactive moieties of the linker. […] The “identifier” identifies the well of the multi-well plate that has been sampled, e.g., AHD2B-1-A1 relates to the top left well in FIG. 1. The DC50 provides an indication of the potency of the bifunctional compound in targeted degradation; Dmax provides an indication of the maximum possible degradation. The use of these metrics is further described in Flexible Fitting of PROTAC Concentration-Response Curves with Changepoint Gaussian Processes, Semenova et al., SLAS Discovery, 2021, 26, 1212-1224.
A general note: With HiBiT, luminescence reflects the tagged protein that the partner subunit can reach.

Consider `COc1ccc(-c2ocnc2C(=O)NCCCn2cc(-c3ccc(CN4CCN(Cc5ccc(C(=O)NC6CCC(=O)NC6=O)c(F)c5)CC4)cn3)nn2)cc1Cl` (stereo not shown), for which the “Dmax (maximal effect)” value is reported as below 30% and the DC50 is above 10 µM.

In the case of `COc1ccc(-c2ocnc2C(=O)NCCCn2cc(COc3ccc(CN4CCN(Cc5ccc(C(=O)NC6CCC(=O)NC6=O)c(F)c5)CC4)cc3)nn2)cc1Cl` (stereo not shown), the “Dmax (maximal effect)” value is listed as 37% and the DC50 was 1.8 µM.

Turning to `COc1ccc(-c2ocnc2C(=O)NCCCn2cc(CCCCCN3CCN(Cc4ccc5c(N6CCC(=O)NC6=O)nn(C)c5c4)CC3)nn2)cc1Cl`, the “Dmax (maximal effect)” value is 56% and the DC50 was determined as 0.41 µM.

With `COc1ccc(-c2ocnc2C(=O)NCCCn2cc(COCCOCCN3CCN(Cc4ccc5c(N6CCC(=O)NC6=O)nn(C)c5c4)CC3)nn2)cc1Cl`, the “Dmax (maximal effect)” value is below 30% and the DC50 is above 10 µM.

Consider `COc1ccc(-c2ocnc2C(=O)NCCCn2cc(CCCCN3CCN(Cc4ccc(C(=O)NC5CCC(=O)NC5=O)c(F)c4)CC3)nn2)cc1Cl` (stereo not shown), for which the “Dmax (maximal effect)” value was below 30% and the DC50 was above 10 µM.

`COc1ccc(-c2ocnc2C(=O)NCCCn2cc(COc3ccc(CN4CC5(C4)CN(Cc4ccc6c(N7CCC(=O)NC7=O)nn(C)c6c4)C5)cc3)nn2)cc1Cl`: the “Dmax (maximal effect)” value is recorded as 41% and the DC50 came out at 3.1 µM.

For the compound `COc1ccc(-c2ocnc2C(=O)NCCCn2cc(CCCCCN3CCCN(Cc4ccc5c(N6CCC(=O)NC6=O)nn(C)c5c4)CC3)nn2)cc1Cl`, the “Dmax (maximal effect)” value was 62% and the DC50 amounted to 0.53 µM.

Consider `COc1ccc(-c2ocnc2C(=O)NCCCn2cc(CCCCCN3CCN(Cc4ccc(C(=O)NC5CCC(=O)NC5=O)c(F)c4)CC3)nn2)cc1Cl` (stereo not shown), for which the “Dmax (maximal effect)” value was below 30% and the DC50 was above 10 µM.

Regarding `COc1ccc(-c2ocnc2C(=O)NCCCn2cc(-c3cccc(CN4CCN(Cc5ccc6c(N7CCC(=O)NC7=O)nn(C)c6c5)CC4)n3)nn2)cc1Cl`, the “Dmax (maximal effect)” value turned out to be 56% and the DC50 was below 0.25 µM.

As to `COc1ccc(-c2ocnc2C(=O)NCCCn2cc(COc3ccc(CN4CCN(Cc5ccc6c(N7CCC(=O)NC7=O)nn(C)c6c5)CC4)cc3)nn2)cc1Cl`, the “Dmax (maximal effect)” value was determined as 52% and the DC50 was below 0.25 µM.

As for `COc1ccc(-c2ocnc2C(=O)NCCCn2cc(COC3CCN(Cc4ccc(C(=O)NC5CCC(=O)NC5=O)c(F)c4)CC3)nn2)cc1Cl` (stereo not shown), the “Dmax (maximal effect)” value is on record as below 30% and the DC50 was above 10 µM.
